Data published in article PMC6664808 (Biotechnology and bioengineering, 2018).

What was measured:
Test in all cases: flow cytometry on cells
Pro.v2-cNGF = Pro.v2-cNGF (Canis lupus familiaris, UniProt A0A8I3PYI3, point mutant)
Pro.v3-cNGF = Pro.v3-cNGF (Canis lupus familiaris, UniProt A0A8I3PYI3, point mutant)
Pro.v1-cNGF = Pro.v1-cNGF (Canis lupus familiaris, UniProt A0A8I3PYI3, point mutant)
Pro.v4-cNGF [1] = target: T1, Pro.v4-cNGF (Canis lupus familiaris, UniProt A0A8I3PYI3, point mutant)
Pro.v4-cNGF [2] = target: T1, Pro.v4-cNGF; remark: listed apart in the source

B1: Tanezumab (antibody, V domains shown)
VH: QVQLQESGPGLVKPSETLSLTCTVSGFSLIGYDLNWIRQPPGKGLEWIGIIWGDGTTDYNSAVKSRVTISKDTSKNQFSLKLSSVTAADTAVYYCARGGYWYATSYYFDYWGQGTLVTVSS
VL: DIQMTQSPSSLSASVGDRVTITCRASQSISNNLNWYQQKPGKAPKLLIYYTSRFHSGVPSRFSGSGSGTDFTFTISSLQPEDIATYYCQQEHTLPYTFGQGTKLEIK
signal:noise ratio (Pro.v2-cNGF): 10.1 ratio (MFI over MFI of unlabeled cells)
signal:noise ratio (Pro.v3-cNGF): 14.3 ratio (MFI over MFI of unlabeled cells)
signal:noise ratio (Pro.v1-cNGF): 6.5 ratio (MFI over MFI of unlabeled cells)
signal:noise ratio (Pro.v4-cNGF [1]): 14.3 ratio (MFI over MFI of unlabeled cells)
Kd (Pro.v4-cNGF [2]): 0.8 nM
